Measured values from paper PMC3947174 (Structure (London, England : 1993), 2013).

How the values were obtained:
CALP (CAL PDZ domain) = CALP (CAL PDZ domain) (Homo sapiens, UniProt Q9HD26); experiment: FP competition; type: binding; settings: reporter F*-iCAL36, PDZ ~[…] Kd, triplicate experiments
N2P2 (NHERF2 PDZ2) = N2P2 (NHERF2 PDZ2) (Homo sapiens, UniProt Q15599); experiment: FP displacement binding to NHERF2 PDZ2
H-iCAL36 = experiment: fluorescence polarization competition
[1] = biological target: HPV16 E6 (Human papillomavirus type 16); experiment: fluorescence polarization competition
L-iCAL36 = experiment: fluorescence polarization competition
V-iCAL36 = experiment: fluorescence polarization competition
[2] = biological target: histone H4 transcription factor (Homo sapiens); experiment: fluorescence polarization competition
iCAL36Q-4 = experiment: fluorescence polarization competition
iCAL36QDTRL = experiment: fluorescence polarization competition
iCAL36TRL = experiment: fluorescence polarization competition
iCAL36VQD-3 = experiment: fluorescence polarization competition
iCAL36VQDTRL = experiment: fluorescence polarization competition
iCAL36 = experiment: fluorescence polarization competition; settings: cited from earlier work
[3] = biological target: insulin-like growth factor-binding protein 3 receptor (Homo sapiens); experiment: fluorescence polarization competition
[4] = biological target: proteasome subunit beta type-9 (Homo sapiens); experiment: fluorescence polarization competition
[5] = biological target: semaphorin 4G isoform 3 (Homo sapiens); experiment: fluorescence polarization competition
CALP E317A = CALP E317A (Homo sapiens, UniProt Q9HD26, E317A); experiment: FP competition binding to CALP E317A mutant

Compound: CC(C)C[C@H](NC(=O)[C@H](CCCNC(=N)N)NC(=O)[C@@H](NC(=O)[C@H](CCCNC(=N)N)NC(=O)[C@H](CO)NC(=O)[C@H](Cc1c[nH]c2ccccc12)NC(=O)[C@H](Cc1c[nH]cn1)NC(=O)[C@H](CO)NC(=O)[C@H](CCC(=O)O)NC(=O)[C@@H](N)CCCNC(=N)N)[C@@H](C)O)C(=O)O [TM219_HUMAN]
- Ki (CALP (CAL PDZ domain)): 29 ± 8 µM

Compound: CC[C@H](C)[C@H](NC(=O)[C@@H](NC(=O)[C@H](CO)NC(=O)[C@@H](NC(=O)[C@H](CCC(N)=O)NC(=O)[C@H](Cc1c[nH]c2ccccc12)NC(=O)[C@H](CCCNC(=N)N)NC(=O)[C@H](CO)NC(=O)[C@H](CC(N)=O)NC(=O)[C@H](C)N)[C@@H](C)O)[C@@H](C)CC)C(=O)O [iCAL36Q^-4]
- Ki (CALP (CAL PDZ domain)): 14.8 ± 3.5 µM
- Ki (N2P2 (NHERF2 PDZ2)): 450 ± 150 µM

Compound: CALP PDZ (from UniProt Q9HD26)
- Ki (H-iCAL36): 450 µM
- Ki [1]: 340 µM
- Ki (L-iCAL36): 68 µM
- Ki (V-iCAL36): 190 µM
- Ki [2]: 46 µM
- Ki (iCAL36Q-4): 14.8 µM
- Ki (iCAL36QDTRL): 56.2 µM
- Ki (iCAL36TRL): 4.5 µM
- Ki (iCAL36VQD-3): > 1000 µM
- Ki (iCAL36VQDTRL): 230 µM
- Ki (iCAL36): 22.6 µM
- Ki [3]: 29 µM
- Ki [4]: 120 µM
- Ki [5]: 46 µM

Compound: CC(C)C[C@H](NC(=O)[C@H](CCCNC(=N)N)NC(=O)[C@@H](NC(=O)[C@@H](NC(=O)[C@H](CCC(N)=O)NC(=O)[C@@H](NC(=O)[C@H](CCC(=O)O)NC(=O)[C@H](CCC(=O)O)NC(=O)[C@H](CCC(=O)O)NC(=O)[C@@H](N)[C@@H](C)O)C(C)C)[C@@H](C)O)[C@@H](C)O)C(=O)O [CFTRT^-3]
- Ki (CALP E317A): 15.1 ± 2 µM

Compound: CC(C)[C@H](NC(=O)[C@H](CCCNC(=N)N)NC(=O)[C@H](CO)NC(=O)[C@H](Cc1ccccc1)NC(=O)[C@H](CO)NC(=O)[C@H](Cc1c[nH]c2ccccc12)NC(=O)[C@@H]1CCCN1C(=O)[C@H](CO)NC(=O)[C@H](Cc1c[nH]cn1)NC(=O)[C@@H]1CCCN1)C(=O)O [SEM4G_HUMAN]
- Ki (CALP (CAL PDZ domain)): 46 ± 14 µM

Compound: CALP E317A PDZ (from UniProt Q9HD26)
- Ki (iCAL36TRL): 2.2 µM
- Ki (iCAL36VQDTRL): 140 µM

Compound: CC(C)[C@H](NC(=O)[C@H](CCCNC(=N)N)NC(=O)[C@@H](NC(=O)[C@H](C)NC(=O)[C@H](Cc1ccccc1)NC(=O)[C@H](Cc1c[nH]c2ccccc12)NC(=O)[C@H](CO)NC(=O)[C@H](CS)NC(=O)CNC(=O)[C@@H](N)CS)[C@@H](C)O)C(=O)O [HINFP_HUMAN]
- Ki (CALP (CAL PDZ domain)): 46 ± 24 µM

Compound: CC(C)C[C@H](NC(=O)[C@H](CCCNC(=N)N)NC(=O)[C@H](CO)NC(=O)CNC(=O)[C@H](CCC(=O)O)NC(=O)[C@H](Cc1c[nH]c2ccccc12)NC(=O)[C@@H](NC(=O)[C@H](CCC(=O)O)NC(=O)[C@H](Cc1ccccc1)NC(=O)CN)[C@@H](C)O)C(=O)O [Peptide B4DZW2_HUMAN]
- Ki (CALP (CAL PDZ domain)): 120 ± 60 µM

Compound: CC[C@H](C)[C@H](NC(=O)[C@@H](NC(=O)[C@H](CO)NC(=O)[C@H](CC(=O)O)NC(=O)[C@H](CCC(N)=O)NC(=O)[C@@H](NC(=O)[C@H](CCCNC(=N)N)NC(=O)[C@H](CO)NC(=O)[C@H](CC(N)=O)NC(=O)[C@H](C)N)C(C)C)[C@@H](C)CC)C(=O)O [iCAL36VQD^-3]
- Ki (CALP E317A): 770 ± 50 µM
- Ki (N2P2 (NHERF2 PDZ2)): 420 ± 120 µM

Compound: CC(C)C[C@H](NC(=O)[C@H](CCCNC(=N)N)NC(=O)[C@@H](NC(=O)[C@H](CC(=O)O)NC(=O)[C@H](CCC(N)=O)NC(=O)[C@@H](NC(=O)[C@H](CCCNC(=N)N)NC(=O)[C@H](CO)NC(=O)[C@H](CC(N)=O)NC(=O)[C@H](C)N)C(C)C)[C@@H](C)O)C(=O)O [iCAL36VQDTRL]
- Ki (CALP (CAL PDZ domain)): 230 ± 30 µM
- Ki (CALP E317A): 140 ± 40 µM

Compound: CC(C)C[C@H](NC(=O)[C@H](CCCNC(=N)N)NC(=O)[C@@H](NC(=O)[C@@H](NC(=O)[C@@H]1CCCN1C(=O)[C@H](Cc1c[nH]c2ccccc12)NC(=O)[C@H](CCCNC(=N)N)NC(=O)[C@H](CO)NC(=O)[C@H](CC(N)=O)NC(=O)[C@H](C)N)[C@@H](C)O)[C@@H](C)O)C(=O)O [iCAL36TRL]
- Ki (CALP (CAL PDZ domain)): 4.5 ± 0.8 µM
- Ki (CALP E317A): 2.2 ± 1.2 µM
